Ab-14 light chain CDR variants: yeast mating affinities

Values reported by Li et al. 2023, doi:10.1038/s41467-023-39022-2 (FLAb copy).

Binding partner: SARS-CoV-2 spike HR2 peptide, sequence PDVDLGDISGINAS.

Each scFv is VH, the linker GGGGSGGGGSGGGGS, VL, as in the parent Ab-14, and differs from it in the CDRs of the light chain only.
VH: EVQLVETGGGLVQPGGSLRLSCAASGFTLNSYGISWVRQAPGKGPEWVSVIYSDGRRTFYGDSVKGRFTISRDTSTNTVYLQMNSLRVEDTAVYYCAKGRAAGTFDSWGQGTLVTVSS
VL: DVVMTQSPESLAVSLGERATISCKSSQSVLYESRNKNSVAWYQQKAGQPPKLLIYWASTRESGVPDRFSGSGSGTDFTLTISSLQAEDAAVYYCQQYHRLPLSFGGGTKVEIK

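Designed CDR sequences, proposed from the first random library and measured here. Group labels follow the data file (Ctrl: baseline library sampled from a position-specific scoring matrix, with some repeated check sequences; Rand: our label for a block that the file lists under HC and that is probably the random mutants of the ten best first-round binders; GP: Gaussian process model; HC: hill climbing; Gen: genetic algorithm; Gibbs: Gibbs sampling; a sequence that several methods proposed may carry one label only). AlphaSeq pools MATa yeast showing the antibodies with MATalpha yeast showing the peptide. After mating in shaken culture at 30 °C for 16 h, diploids were selected and their barcode pairs sequenced. Each replicate has its own calibration line, from reference interactions of the BCL2 family. Each pool was mated in six replicate cultures.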

The parent's light chain CDRs are KSSQSVLYESRNKNSVA, WASTRES, QQYHRLPLS; each variant's own CDRs replace them letter for letter. This list holds designs with at most six substitutions. Values are log10 of the apparent Kd in nM; lower means stronger binding. A mean of the replicates is given; it leaves out those without a signal. An entry "nd" has no value in the source: the pair was not observed among the diploids in any replicate. This suggests poor binding but is not conclusive. The authors' rule: three or more of the six replicates give a measured affinity, fewer mean a poor binder. The range of this assay differs from that of the first round, and the authors advise against merging the two. Three control strains display no target. For all light chain designs, 4% of the pairings with them gave a signal, with a median of 2.64 and one signal in twenty below 1.59, so weak values seen in few replicates may be background. The parent sequence was in this pool as ten entries: three were never detected, three once, and four in most replicates, with averages from 0.34 to 2.37.

* KSSGSYLYESRNKNSVA / EASTRES / QQYHRMPLS [GP_HC] -> 0.49 (6 of 6 replicates)
* KSSGSVLYESLNKNSVA / WASTRES / QHYHRLPLS [Ctrl] -> 2.65 (1 of 6 replicates)
* KSSWSWLYESRNKNSVA / GASTRES / NQYHRLPLS [Rand] -> nd (0 of 6 replicates)
* KVSQQKLYESRNKNSVA / DASTRES / QQYHRLPLS [GP_HC] -> -0.35 (6 of 6 replicates)
* KLPQSHLYESRNKNSVA / NASTRLS / QQYHRLPLS [GP_Gen] -> 1.22 (6 of 6 replicates)
* KSSQSQLLESRNKNSVA / WASTRES / QQYHRLPLS [Ctrl] -> 2.70 (6 of 6 replicates)
* KVYQSQLYESRNKNSVA / NASTRES / QQYHRLPLS [GP_Gen] -> 0.36 (6 of 6 replicates)
* KSSQSVLYEGRNKASVA / SASTRES / QQYHRLPLS [Ctrl] -> 0.69 (6 of 6 replicates)
* KYSQSFLYESRWKNSVA / GASQRES / QQYHRLPLS [GP_HC] -> 0.35 (6 of 6 replicates)
* KSSQSVLYESRNKNSVA / SVSTRES / QQYHRLPLS [Ctrl] -> 0.70 (6 of 6 replicates)
* KSSQSVLNQSRNKNSVA / DASTRES / QQYHRLPLS [GP_HC] -> 0.51 (6 of 6 replicates)
* KSSQSVYYESRNKNSVA / WAVRRES / QQYHHLPLS [Ctrl] -> nd (0 of 6 replicates)
* KSGQSFLYESRNKNSVA / GASMRES / QQYHRLPLS [GP_Gibbs] -> -0.13 (6 of 6 replicates)
* KSSQSVLTESRNKNSVA / WQSTRES / QQYHRLPLN [Ctrl] -> nd (0 of 6 replicates)
* KSSQSVLGEQRNKNSVA / DDSTRES / QQYHRLPLS [GP_HC] -> 0.41 (6 of 6 replicates)
* KQSQSTLCESRNKNSVA / DASTRES / QQYHRLPLS [GP_HC] -> 0.33 (6 of 6 replicates)
* KSSQSVLEESRNKNSVA / WASTRES / QQYLRLPLS [Ctrl] -> 1.75 (1 of 6 replicates)
* KFSQWVLYESRTKNSVA / NASTREQ / QQYHRLPLS [GP_HC] -> 0.38 (6 of 6 replicates)
* KLRQSTLYESRNTNSVA / EASTRES / QQYHRLPLS [GP_HC] -> -0.05 (6 of 6 replicates)
* KSSDSGLYESRMKNSVA / EASTRES / QQYHRLPLS [GP_HC] -> -0.40 (6 of 6 replicates)
* KSSQSVLYESRNKHSVA / WASTRES / QQYFRLPLS [Ctrl] -> 1.79 (6 of 6 replicates)
* KLDQSELYESRNKNSVA / EASQRES / QQYHRLPLS [GP_Gen] -> -0.26 (6 of 6 replicates)
* KSSSSVLYEERNKNSVA / WAHTRNS / QQYHRLPLS [Ctrl] -> 2.13 (1 of 6 replicates)
* KLWQSVLYESRNKNSVA / EASTRES / QQYHRLPLS [GP_Gen] -> 0.77 (6 of 6 replicates)
* KLPQSVDYESRNKNSVA / EASTRES / QQYHRLPLS [GP_Gen] -> 0.52 (6 of 6 replicates)
* FVSQSQLYESRNKNSVA / NGSTRES / QQYHRLPLS [GP_Gibbs] -> -0.36 (6 of 6 replicates)
* KSEQSVHYESRNKNSVA / HASTRES / QQYHRLPLS [Ctrl] -> 0.93 (6 of 6 replicates)
* KGSQSVLRESRNKNSVA / WASTRES / DQYHRMPLS [Ctrl] -> nd (0 of 6 replicates)
* KVQQSGLYESRNKNSVA / EASTRES / QQYHRLPLS [GP_Gen] -> -0.08 (6 of 6 replicates)
* KNSQSVLYESANKNSVA / EGSTRES / QQYHRLPLS [Ctrl] -> 0.06 (6 of 6 replicates)
* KQSQSDLPESRNKNSVA / DASTRES / QQYHRLPLS [GP_HC] -> -0.21 (6 of 6 replicates)
* KSSQSVLYESRNKNSVA / DASTREA / QQYHRLPFS [Ctrl] -> 0.88 (6 of 6 replicates)
* KSMQSVLYESRNKNSLA / WASTRES / QQYHRLPLS [Ctrl] -> nd (0 of 6 replicates)
* KLSQSDLYESRNKNSVA / EASTREQ / QQYHRLPLS [GP_Gen] -> -0.23 (6 of 6 replicates)
* KSSQSELYESRNKNSVA / WASTRES / QQYHRTPLS [Ctrl] -> 1.89 (6 of 6 replicates)
* KSSQSLLYESRNKNSVA / WARTRES / QQYHRLPLQ [Ctrl] -> 2.80 (3 of 6 replicates)
* KLSQSVLYESRNKNSVA / WASERES / QQYHRLPLS [Ctrl] -> 0.00 (6 of 6 replicates)
* KQSQSVLYESVNKNSVA / DASTREQ / QQYHRLPLS [GP_HC] -> 0.25 (6 of 6 replicates)
* KSSQSVLYESRNKNSVA / DASTRES / QQYHRMPLS [Ctrl] -> 0.77 (6 of 6 replicates)
* KFSQSVLFEWRNKNSVA / DASTRES / QQYHRLPLS [GP_HC] -> -0.28 (6 of 6 replicates)
* HLSWMVLYESRNKNSVA / NASTRES / QQYHRLPLS [GP_HC] -> -0.16 (6 of 6 replicates)
* KFYQSVLYESRTKNSVA / NASTRES / QQYHQLPLS [GP_HC] -> 0.76 (6 of 6 replicates)
* KLSQSELYESRNKNSVA / HASTRLS / QQYHRLPLS [GP_Gen] -> 0.26 (6 of 6 replicates)
* KLEQSELYESRNKNSVA / NASQRES / QQYHRLPLS [GP_Gen] -> -0.43 (6 of 6 replicates)
* KQSFSVLQESRNKNSVA / DASTRES / QQYHRLPLS [GP_HC] -> -0.01 (6 of 6 replicates)
* KSLQSVLYESRNKNSVA / EASTRED / QQYHQLPLS [GP_HC] -> 0.27 (6 of 6 replicates)
* KVSQSMLYESRNKNSVA / NASYRES / QQYHRLPLS [GP_Gen] -> -0.41 (6 of 6 replicates)
* KSSPSVLYESDNKNSVA / WASTRES / QQYHRLALS [Ctrl] -> nd (0 of 6 replicates)
* KSSSSVLYESRNKNSVA / WASTRES / QQYHRLPLS [Ctrl] -> 1.76 (3 of 6 replicates)
* KSSQSVLYESRNDNSLA / HESTREL / QQYHRLPLS [Ctrl] -> 2.22 (3 of 6 replicates)

The opening 7 entries, copied out:

- KSSGSYLYESRNKNSVA / EASTRES / QQYHRMPLS [GP_HC] = 0.49 (6 of 6 replicates)
- KSSGSVLYESLNKNSVA / WASTRES / QHYHRLPLS [Ctrl] = 2.65 (1 of 6 replicates)
- KSSWSWLYESRNKNSVA / GASTRES / NQYHRLPLS [Rand] = nd (0 of 6 replicates)
- KVSQQKLYESRNKNSVA / DASTRES / QQYHRLPLS [GP_HC] = -0.35 (6 of 6 replicates)
- KLPQSHLYESRNKNSVA / NASTRLS / QQYHRLPLS [GP_Gen] = 1.22 (6 of 6 replicates)
- KSSQSQLLESRNKNSVA / WASTRES / QQYHRLPLS [Ctrl] = 2.70 (6 of 6 replicates)
- KVYQSQLYESRNKNSVA / NASTRES / QQYHRLPLS [GP_Gen] = 0.36 (6 of 6 replicates)